scFv variants of Ab-14 (light chain) against a SARS-CoV-2 spike peptide

Data: MIT Lincoln Laboratory AlphaSeq set, Engelhart et al. 2022, doi:10.1038/s41597-022-01779-4, as distributed in FLAb.

Target: peptide PDVDLGDISGINAS, taken from heptad repeat 2 (HR2) of SARS-CoV-2 spike.

Each scFv is VH, a (GGGGS)3 linker, VL, as in the parent Ab-14, and differs from it in the CDRs of the light chain only.
VH: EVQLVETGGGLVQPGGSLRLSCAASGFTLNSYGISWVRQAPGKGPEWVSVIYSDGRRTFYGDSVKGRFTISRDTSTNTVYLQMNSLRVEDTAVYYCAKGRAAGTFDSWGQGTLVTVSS
VL: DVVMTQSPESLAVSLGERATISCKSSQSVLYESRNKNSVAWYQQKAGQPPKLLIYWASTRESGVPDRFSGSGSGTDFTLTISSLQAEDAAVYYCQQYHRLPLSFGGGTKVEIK

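The parent was found by panning a naive human phage display library on the peptide. The library (AAYL50) carries one to three amino acid substitutions per variant, with no insertions or deletions. AlphaSeq pools MATa yeast showing the antibodies with MATalpha yeast showing the peptide. Pairs that bind mate more often; barcode pairs of the diploids are counted by sequencing. Scores were corrected for input abundance and mapped to Kd with protein pairs of known affinity run in the same pool. The assay was run in three technical replicates.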

Positions count from residue 1 of the parent VL; K24E puts E in place of K.
Affinities are written as log10 Kd with Kd in nM; a lower number is a better binder.
Replicates are averaged; those with no signal do not enter the mean.
A pair that was not seen in that replicate is written "n.d."; this usually means weak binding, but a binder can also be missed.
For reference, the parent read 0.65 as the reference entry and 1.68 as a member of this library.
Background: pairings of library AAYL50 with three empty control strains gave a value in 18% of cases (median 4.19, 5th percentile 2.99). Values in that range, when seen in few replicates, are hard to tell from nonspecific mating. The control count says in how many pairings with the empty strains this scFv gave a signal, with their mean in brackets.

| changes | log10 Kd, replicates | log10 Kd (nM), mean | empty controls |
|---|---|---|---|
| K24E S28V V39E | 3.19 3.73 n.d. | 3.46 | 3 of 9 (3.39) |
| Y31F H98P | 1.43 1.47 1.55 | 1.48 | 3 of 9 (4.58) |
| N35T S38R R60W | n.d. 4.51 n.d. | 4.51 | 2 of 9 (4.93) |
| N35T S62E P101C | n.d. n.d. n.d. | n.d. | 1 of 9 (2.47) |
| E61W L100I P101N | n.d. n.d. n.d. | n.d. | 0 of 9 |
| S28Y R34W | 3.04 2.39 2.59 | 2.67 | 4 of 9 (4.39) |
| Y31M S62D S103P | n.d. n.d. 3.82 | 3.82 | 1 of 9 (3.56) |
| S38Q W56P | n.d. n.d. n.d. | n.d. | 1 of 9 (3.30) |
| S26N L30F N37E | 1.72 1.87 1.79 | 1.79 | 1 of 9 (3.75) |
| Q27I Y97N R99Q | 5.75 n.d. 3.86 | 4.80 | 1 of 9 (5.66) |
| K24M Q27D N35K | 4.11 3.65 3.96 | 3.91 | 3 of 9 (4.50) |
| A40L W56G E61D | n.d. 2.52 n.d. | 2.52 | 0 of 9 |
| S33N Q95K Y97H | n.d. n.d. n.d. | n.d. | 0 of 9 |
| S26T Q27M H98N | 0.80 1.05 0.75 | 0.87 | 0 of 9 |
| Q27C A40G T59N | n.d. n.d. n.d. | n.d. | 0 of 9 |
| E32L S38I S103E | n.d. n.d. n.d. | n.d. | 2 of 9 (3.18) |
| S25C N37K P101T | 1.80 1.73 2.02 | 1.85 | 9 of 9 (4.93) |
| Q27W E32G N35I | 1.25 1.53 1.62 | 1.47 | 1 of 9 (2.60) |
| S33D E61N P101T | n.d. n.d. n.d. | n.d. | 0 of 9 |
| S28Q A40E A57Q | n.d. n.d. n.d. | n.d. | 1 of 9 (2.70) |
| S38W V39Q S103V | n.d. n.d. n.d. | n.d. | 0 of 9 |
| S62E R99Y L100M | 1.79 2.25 0.74 | 1.59 | 0 of 9 |
| K24E Y97H S103K | 3.61 n.d. 5.03 | 4.32 | 6 of 9 (4.60) |
| S25R V29Q | 2.15 2.17 2.69 | 2.34 | 1 of 9 (4.41) |
| N35P T59I R99E | 3.44 3.35 4.73 | 3.84 | 4 of 9 (4.91) |
| A40E Q96I | 2.38 n.d. n.d. | 2.38 | 0 of 9 |
| S26P T59D | 2.71 2.97 3.04 | 2.91 | 1 of 9 (3.39) |
| S26K | 1.20 1.27 1.55 | 1.34 | 1 of 9 (3.38) |
| S25F Q27G V39K | 4.12 n.d. 4.91 | 4.52 | 1 of 9 (5.81) |
| R99P L102T | 0.55 0.89 0.65 | 0.70 | 3 of 9 (3.93) |
| A40V A57N S103N | n.d. n.d. n.d. | n.d. | 0 of 9 |
| S28K R34W R60E | n.d. n.d. 6.07 | 6.07 | 2 of 9 (5.28) |
| S26I S58A E61V | 1.44 1.69 1.42 | 1.52 | 3 of 9 (4.19) |
| R34W N35C L100M | 3.29 3.29 3.37 | 3.32 | 6 of 9 (4.23) |
| S26P E61K R99G | 5.58 n.d. n.d. | 5.58 | 3 of 9 (3.37) |
| V39L A57Q Q96F | n.d. n.d. n.d. | n.d. | 0 of 9 |
| S33Y R34P T59K | n.d. n.d. n.d. | n.d. | 1 of 9 (3.66) |
| K36T E61V | n.d. n.d. n.d. | n.d. | 3 of 9 (4.06) |
| R34L V39Q Q96S | n.d. 3.73 n.d. | 3.73 | 2 of 9 (4.17) |
| K24D N37V Y97N | 2.82 3.31 3.04 | 3.05 | 3 of 9 (3.59) |
| S28Q A40R Q95E | n.d. n.d. n.d. | n.d. | 1 of 9 (3.59) |
| Y31M S33G Y97W | 3.29 n.d. n.d. | 3.29 | 1 of 9 (2.86) |
| Q27T A40V T59C | n.d. n.d. n.d. | n.d. | 2 of 9 (4.07) |
| E32Y V39H | n.d. n.d. 4.00 | 4.00 | 1 of 9 (4.30) |
| S38K W56H Q95G | n.d. n.d. n.d. | n.d. | 0 of 9 |
| K24D N35D S58F | n.d. n.d. n.d. | n.d. | 1 of 9 (3.26) |
| K24R S62W L102Q | 1.56 1.41 1.75 | 1.57 | 4 of 9 (4.78) |
| N35I S58N R99G | 1.42 1.23 1.53 | 1.39 | 0 of 9 |
| E61W S62W L100C | n.d. n.d. n.d. | n.d. | 0 of 9 |
| S33Y T59Y H98M | 2.47 2.22 2.62 | 2.44 | 2 of 9 (4.17) |
| S26C N37E R60G | 4.55 n.d. 4.94 | 4.74 | 5 of 9 (4.42) |
| Y31R S33K E61F | n.d. n.d. n.d. | n.d. | 0 of 9 |

The 5 strongest on average among those seen in every replicate, once more:

| changes | log10 Kd, replicates | log10 Kd (nM), mean | empty controls |
|---|---|---|---|
| R99P L102T | 0.55 0.89 0.65 | 0.70 | 3 of 9 (3.93) |
| S26T Q27M H98N | 0.80 1.05 0.75 | 0.87 | 0 of 9 |
| S26K | 1.20 1.27 1.55 | 1.34 | 1 of 9 (3.38) |
| N35I S58N R99G | 1.42 1.23 1.53 | 1.39 | 0 of 9 |
| Q27W E32G N35I | 1.25 1.53 1.62 | 1.47 | 1 of 9 (2.60) |